Values of other authors in patent US20260053724A1, “ORAL CARE COMPOSITIONS” (Soluta Consult GmbH, priority 2022, published 2026).

Settings: water at 20° C., 1013 mbar and pH 7; not SO means less than 0.0001% (w/w)

For calcium hydroxyapatite, which “solubility in water (SO)” value is on record?
The value was “not soluble in water”.
